How the values were obtained:
PLA2 = PLA2 enzymatic activity in irradiated HUVEC pretreated with PLA2 inhibitors; assay type: cell-based, human; conditions: 1 μM inhibitor 30 minutes prior to 3 Gy, harvested 3 minutes after beginning of irradiation
HUVEC [1] = assay: Endothelial cell migration through the filter; conditions: 24 hours
Protocol: FIG. 8A is a bar graph showing the results of endothelial cell migration assays. Fresh complete HUVEC media was added to the bottom chamber of 6 well plates with 8.0 micron inserts, while HUVEC suspension was added to the top chamber. Both chambers were treated with EtOH or cPLA2 inhibitors (1 μM AACOCF3 and 1 μM MAFP) for 30 minutes and irradiated with 3 Gy. 24 hours later, cells in the insert chambers were stained with DAPI and counted (5 HPF per sample).
(§1) The role of cPLA2 in HUVEC migration was investigating using two approaches: endothelial cell migration through the filter and endothelial cell gash closure (see FIGS. 8A-8C). […] However, inhibition of cPLA2 with either AACOCF3 or MAFP followed by irradiation maximally abolished HUVEC migration in both assays leaving only 40% of cells capable of migration (see FIGS. 8A-8C).

HUVEC [2] = assay: Endothelial cell gash closure assay; conditions: 24 hours
Protocol: FIGS. 8B and 8C depict the results of endothelial cell gash closure assays. HUVEC were grown to 70-80% confluency. Four parallel wounds were created on each plate using a 200 ml pipette tip, and cells were treated with EtOH or cPLA2 inhibitors (1 μM AACOCF3 and 1 μM MAFP) for 30 minutes and irradiated with 3 Gy. 24 hours later, cells were stained with 1% methylene blue and counted. Shown are micrographs of stained cells (FIG. 8B) and a bar graph of the corresponding average percentage of migrated cells with SEM from six experiments (FIG. 8C). *: P<0.05.
as §1

LLC tumors = assay: Tumor size by Power Doppler sonography; conditions: for fold-change in tumor size comparing first and last measurements: day 6 vs day 17, control 8.5-fold, 3 Gy 10-fold
Protocol: FIGS. 9E and 9F are bar graphs showing fold change in tumor size in mice with LLC tumors and treated intraperitoneally (IP) with 70% EtOH or cPLA2 inhibitors (FIG. 9E, 10 mg/kg AACOCF3 or FIG. 9F, 2.0 mg/kg MAFP). Tumors were irradiated with 3 Gy 30 minutes after IP administration. Treatment was repeated daily for 5 consecutive days. Sizes of the tumors were measured using Power Doppler sonography on day 6 after tumor inoculation (first day of treatment) and on day 14 (FIG. 9E) or 17 (FIG. 9F). Shown are bar graphs of average fold-change in tumor size. All graphs are with SEM from at least three animals per group. *: P<0.05.
Power Doppler sonography was also used to estimate effects of cPLA2 inhibition on tumor size. The same mouse tumor model and irradiation with the addition of a second cPLA2 inhibitor, MAFP, was studied. Tumor size was measured over the course of the experiment. Treatment with radiation alone or inhibitors alone (10 mg/kg AACOCF3 or 2 mg/kg for MAFP) led to a persistent decrease in the average tumor size which was not statistically significant. […] This difference was especially pronounced when fold-changes in tumor size comparing first and last measurements were calculated (see FIG. 9E: 2-fold for AACOCF3+3 Gy vs. 10-fold for control and 10-fold for 3 Gy; FIG. 9F: 4-fold for MAFP+3 Gy vs. 8.5-fold for control and 10-fold for 3 Gy).

[3] = 1 μM inhibitor followed by 3 Gy irradiation

Q: What does the source list for `CCCCC/C=C\C/C=C\C/C=C\C/C=C\CCCCOP(=O)(F)OC` (centres unmarked)?
A: radiation-induced activation of PLA2 (PLA2): completely abrogated; decrease in HUVEC migration through the filter (HUVEC [1]; 1 μM inhibitor alone): 20%; cells capable of migration (through the filter) (HUVEC [1]; [3]): 40%; decrease in gash closure (HUVEC migration) (HUVEC [2]; 1 μM inhibitor alone): 50%; cells capable of migration (gash closure) (HUVEC [2]; [3]): 40%; fold-change in tumor size comparing first and last measurements (LLC tumors; 2 mg/kg IP + 3 Gy daily for 5 days): 4 fold; fold-change in tumor size comparing first and last measurements (LLC tumors; 2 mg/kg IP alone daily for 5 days): 7 fold; decrease in the average tumor size (LLC tumors; inhibitors alone, 10 mg/kg AACOCF3 or 2 mg/kg for MAFP, IP daily for 5 days): not statistically significant
